Values quoted from earlier work in paper PMC10961402, “Safety, tolerability, pharmacokinetics and pharmacokinetic-pharmacodynamic modeling of cetagliptin in patients with type 2 diabetes mellitus” (Frontiers in Endocrinology, 2024).

System: DPP-4 activity
Conditions: healthy male subjects; cited from earlier work

Structure (SMILES): N[C@@H](CC(=O)N1CCn2c(nnc2C(F)(F)F)C1)Cc1cc(F)c(F)cc1F [Sitagliptin, sitagliptin, reference compound]
- inhibition of DPP-4 activity: ≥ 80%
